Measurements published in PubChem BioAssay AID602274 (Sanford-Burnham Center for Chemical Genomics, 2012).
This is a selection; strong and weak results do not stand in their true shares. Active and inactive are the calls of the source. Rule as the data show it: active = survival enhancement above about 18%; inactive = the rest.

Assay: enhancers of single-cell hiPSC survival, primary screen, ATPlite luminescence (AID 602274);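 also: cells exposed to compounds for 16 hours before the ATP read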
Settings: at 20 µM, active compounds read high, 100% = ROCK inhibitor wells, 0% = DMSO

SMILES | survival enhancement
CCC(=O)N(c1ccccc1)C1(COC)CCN(CCn2nnn(CC)c2=O)CC1 | inactive: 0.9%
CCC(=O)N(c1ccccc1)C1(COC)CCN(CCc2cccs2)CC1 | inactive: -2.8%
CCC(=O)N(c1ccccc1)C1CCN(CCc2ccccc2)CC1 | inactive: 0.5%
